Apparent affinities of Ab-14 variants for a coronavirus HR2 peptide

The measurements come from Engelhart et al. 2022 (doi:10.1038/s41597-022-01779-4) through the FLAb antibody collection.

Antigen: PDVDLGDISGINAS, a 14-residue peptide of the SARS-CoV-2 spike HR2 region.

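Phage display of a naive human antibody library on the peptide gave the parent. In library AAYL49, one, two or three CDR residues were substituted; doubles and triples were drawn at random. Affinity was read by AlphaSeq, a pooled yeast mating assay with surface-displayed partners. Binding brings cells together so that they mate, and sequencing counts the barcode pairs among the diploids. The ratio of observed to expected reads was calibrated, replicate by replicate, on BCL2-family standards whose Kd was known from biolayer interferometry. There are three technical replicates.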

Parent scFv Ab-14: VH joined to VL by three GGGGS repeats. Changes lie in the heavy chain CDRs alone.
VH: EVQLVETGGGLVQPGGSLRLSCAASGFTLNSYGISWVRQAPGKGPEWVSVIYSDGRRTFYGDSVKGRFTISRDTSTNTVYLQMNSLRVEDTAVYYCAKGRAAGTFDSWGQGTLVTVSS
VL: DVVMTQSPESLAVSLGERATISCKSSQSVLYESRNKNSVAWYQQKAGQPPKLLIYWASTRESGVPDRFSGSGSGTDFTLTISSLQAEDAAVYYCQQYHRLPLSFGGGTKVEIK

Substitutions are numbered in sequence along the VH above, starting at 1 (not Kabat).
Values are log10 of the apparent Kd in nM; lower means stronger binding.
A mean of the replicates is given; it leaves out those without a signal.
A pair that was not seen in any replicate is written "nd"; this usually means weak binding, but a binder can also be missed.

changes,mean log10 Kd (nM),replicates with signal,control signals
G55H/A102E,nd,0/3,0/9
G33T/S35L/A101S,nd,0/3,3/9
S31A/D54T/D62E,3.76,2/3,6/9
L29R/S63Y/F105H,4.86,1/3,2/9
L29I/T58E/F59L,nd,0/3,0/9
F27L/L29E/F59C,2.71,1/3,1/9
S31A/V50M/R100G,nd,0/3,1/9
N30Q/R57N/D106M,nd,0/3,2/9
T28S/Y52D/A101V,nd,0/3,3/9
N30V/S35M,2.95,1/3,2/9
G26H/G61Q/S63W,3.34,1/3,0/9
G26C/I34G/F105V,nd,0/3,2/9
T28G/S35W,4.51,1/3,1/9
F27A/I51P/A101N,nd,0/3,2/9
S31W/K65N/T104H,nd,0/3,2/9
Y60H/V64R/T104F,nd,0/3,1/9
L29D/D54H/S63D,2.61,1/3,4/9
F27D/R57Y/T104R,3.89,2/3,1/9
G26W/S35G/Y60G,nd,0/3,0/9
R56V/F59P/A102G,nd,0/3,1/9
Y32N/Y60M/K65M,3.62,1/3,1/9
T28K/T58Q/V64G,2.16,1/3,1/9
I51V/S53V/T58H,nd,0/3,0/9
F27M/G61C/F105P,nd,0/3,0/9
G26M/I34V/V50H,nd,0/3,2/9
I51H/D54E/A101N,nd,0/3,1/9
T28H/V50S,4.65,2/3,2/9
G26I/V50H/K65Q,5.92,1/3,1/9
G33L/G61V/G99R,nd,0/3,1/9
S31W/G61R/V64N,4.62,1/3,3/9
L29F/G33S/S63V,nd,0/3,0/9
G26D/R56Y/V64H,nd,0/3,1/9

Continued, with the values leading:

mean log10 Kd (nM),replicates with signal,control signals,changes
nd,0/3,2/9,G33S/T58L
3.41,2/3,1/9,D62I/V64P
nd,0/3,0/9,L29W/I51P/R57V
nd,0/3,0/9,G33D/Y60V/A102C
3.09,1/3,0/9,F27D/Y60M/F105R
nd,0/3,0/9,G26H/L29A/F105M
nd,0/3,0/9,Y32H/S63V/R100Q
4.00,1/3,3/9,N30C/V50T/A101N
nd,0/3,0/9,V64F/K65H/A101G
nd,0/3,0/9,N30I/T58G/F59L
5.07,2/3,2/9,T58A/V64H/S107L
4.13,1/3,4/9,F27Y/D54V/S63L
nd,0/3,0/9,S31G/Y52Q/R56K
nd,0/3,0/9,L29F/S53V/G61S
nd,0/3,1/9,I51Q/D106I
4.06,2/3,4/9,Y52D/F59H/G99M
4.58,3/3,4/9,T28G/S63G/G99Y
4.53,1/3,1/9,N30Q/V64L/T104V
nd,0/3,0/9,S53G/F105E
nd,0/3,1/9,F27M/R56P/S107K
nd,0/3,0/9,G33Q/S35G/R57P
4.38,2/3,3/9,R56Y/R57I/T104K
2.27,3/3,0/9,S53P/S63F/S107C
nd,0/3,0/9,Y32P/K65C/T104D
3.56,1/3,0/9,L29K/V64N
2.68,1/3,3/9,Y32L/S35Y/R100K
2.49,3/3,0/9,G26K/N30Q/S53T
4.19,1/3,4/9,A101Q/G103D/T104I
nd,0/3,1/9,T28E/L29Y
nd,0/3,1/9,I34N/A102V/F105Q
3.69,1/3,3/9,S31K/R57Y/S107D
nd,0/3,1/9,Y52H/D54T/Y60C

Top 3 of the variants detected in all replicates, tightest first:

changes,mean log10 Kd (nM),replicates with signal,control signals
S53P/S63F/S107C,2.27,3/3,0/9
G26K/N30Q/S53T,2.49,3/3,0/9
T28G/S63G/G99Y,4.58,3/3,4/9

Three control strains display no target. For library AAYL49, 15% of the pairings with them gave a signal, with a median of 4.06 and one signal in twenty below 2.83, so weak values seen in few replicates may be background. Also given: how often the same scFv was detected with the empty control strains.
In this assay the parent's reference entry averaged 0.65; its copy inside this library read 4.11 (one replicate of three).